# From patent publication US8172395B2, “Medical devices having antimicrobial coatings thereon” (priority 2002, dated 2012)
# Conditions: 10 mM sodium phosphate buffer; tested 5, 10, 25 and 50 ppm; inoculum size 5×10^3
structure (smiles),measurement,value
CC[C@H](C)[C@H](N)C(=O)N[C@@H](CC(C)C)C(=O)N1CCC[C@H]1C(=O)N[C@@H](Cc1c[nH]c2ccccc12)C(=O)N[C@@H](CCCCN)C(=O)N[C@@H](Cc1c[nH]c2ccccc12)C(=O)N1CCC[C@H]1C(=O)N[C@@H](Cc1c[nH]c2ccccc12)C(=O)N[C@@H](Cc1c[nH]c2ccccc12)C(=O)N1CCC[C@H]1C(=O)N[C@@H](Cc1c[nH]c2ccccc12)C(=O)N[C@@H](CCCNC(=N)N)C(=O)N[C@@H](CCCNC(=N)N)C(N)=O [Indolicidin],MIC,about 5 ppm
